This data set has as its system Akt. In words: Akt kinase assay (histone H2B) in HUVEC lysates. It is filed as cell-based, human. As to conditions: serum-deprived HUVEC, VEGF 100 ng/ml, 15 min.

As to VEGF, the Akt kinase activity entry is reported as “activated Akt kinase activity”.

For the origin of these results see patent US7368420B1, “Akt compositions for enhancing survival of cells” (Caritas St. Elizabeth's Medical Center of Boston, Inc., priority 1998, dated 2008).
